Laboratory results taken from patent US8034787B2, “Enzyme-cleavable prodrug compounds” (Medarex, Inc., priority 1998, dated 2011).

Experiment: Acute toxicity of intravenous injection in mice with heparin pretreatment
Format: in vivo
Excerpt: It is known that acute toxicity likely occurs through the interaction of positively charged polymers, such as protamines, polylysine, or their aggregates, and the luminal surface of blood vessels. DeLucia, et al., “Efficacy and toxicity of differently charged polycationic protamine-like peptides for heparin anticoagulation reversal,” J Vasc. Surg. 18:49-60 (1993). Ekrami, et al., “Carbamylation decreases the cytotoxicity but not the drug-carrier properties of polylysines,” J. Drug Targ. 2:469-475 (1995). It has been further shown that heparin reduces the toxic effects of protamine sulfate on rabbit myocardium. Wakefield, et al., “Heparin-mediated reductions of the toxic effects of protamine sulfate on rabbit myocardium,” J Vasc. Surg. 16:47-53 (1992). To test the hypothesis that the acute toxicity seen here was due to positively charged prodrug aggregates, βAla-Leu-Ala-Leu-Dox (174 μMol/ml) was given to mice following a 1 hr pretreatment with 4,000 I.U. heparin, intravenously, as compared to control.

[1] = heparin pretreatment i.p. 4000 I.U.
[2] = heparin pretreatment i.p. 8000 I.U.
[3] = heparin pretreatment i.v. 4000 I.U.

In the case of `COc1cccc2c1C(=O)c1c(O)c3c(c(O)c1C2=O)C[C@@](O)(C(=O)CO)C[C@@H]3O[C@H]1C[C@H](NC(=O)[C@H](CC(C)C)NC(=O)[C@H](C)NC(=O)[C@H](CC(C)C)NC(=O)CCN)[C@H](O)[C@H](C)O1` [βAla-Leu-Ala-Leu-Dox, β-Ala-Leu-Ala-Leu-Doxorubicin], the “Acute toxicity (Proportion)” value (Control (iv), heparin 0 I.U.) is reported as 5/5, the “Survival time” value (Control (iv), heparin 0 I.U.) is reported as 0 days and the “Acute toxicity (Proportion)” value [1] is reported as 3/8. For the same molecule, the “Survival [Proportion]” value [1] was “[5/8]”, the “Survival time” value [1] was greater than 9 days and the “Acute toxicity (Proportion)” value [2] was 0/3. For the same molecule, the “Survival [Proportion]” value [2] was “[3/3]”, the “Survival time” value [2] was greater than 11 days and the “Acute toxicity (Proportion)” value [3] was 1/3. The “Survival [Proportion]” value [3] was “[2/3]” and the “Survival time” value [3] was greater than 11 days.
